Like-named read-outs stand apart in the source and are kept apart here.
Key:
[1] = room temperature

| thermodynamic stability of the crystal modification ([1]; listed as modification I) | stability on storage after processing by means of suspensions | thermodynamic stability of the crystal modification [1] | Compound |
| --- | --- | --- | --- |
| thermodynamically stable | stable on storage |  | O=C(O)CCn1c2c(c3ccccc31)C[C@H](NS(=O)(=O)c1ccc(F)cc1)CC2 [Mod. I, (R)-3-[[(4-fluorophenyl)sulphonyl]amino]-1,2,3,4-tetrahydro-9H-carbazole-9-propanoic acid] |
|  |  | metastable | O=C(O)CCn1c2c(c3ccccc31)C[C@H](NS(=O)(=O)c1ccc(F)cc1)CC2 [Mod. II, (R)-3-[[(4-fluorophenyl)sulphonyl]amino]-1,2,3,4-tetrahydro-9H-carbazole-9-propanoic acid, reference compound] |

From US6362214B1 (Bayer Yakuhin, Ltd., priority 1997, dated 2002)
